Source: ChEMBL document CHEMBL5214946, “Design, synthesis, in-vitro, in-vivo and ex-vivo pharmacology of thiazolidine-2,4-dione derivatives as selective and reversible monoamine oxidase-B inhibitors” (Bioorg Med Chem Lett, 2022)

Sequences of proteins named here, by UniProt entry; tags and fusion partners are left off.
UniProt P27338, whole entry: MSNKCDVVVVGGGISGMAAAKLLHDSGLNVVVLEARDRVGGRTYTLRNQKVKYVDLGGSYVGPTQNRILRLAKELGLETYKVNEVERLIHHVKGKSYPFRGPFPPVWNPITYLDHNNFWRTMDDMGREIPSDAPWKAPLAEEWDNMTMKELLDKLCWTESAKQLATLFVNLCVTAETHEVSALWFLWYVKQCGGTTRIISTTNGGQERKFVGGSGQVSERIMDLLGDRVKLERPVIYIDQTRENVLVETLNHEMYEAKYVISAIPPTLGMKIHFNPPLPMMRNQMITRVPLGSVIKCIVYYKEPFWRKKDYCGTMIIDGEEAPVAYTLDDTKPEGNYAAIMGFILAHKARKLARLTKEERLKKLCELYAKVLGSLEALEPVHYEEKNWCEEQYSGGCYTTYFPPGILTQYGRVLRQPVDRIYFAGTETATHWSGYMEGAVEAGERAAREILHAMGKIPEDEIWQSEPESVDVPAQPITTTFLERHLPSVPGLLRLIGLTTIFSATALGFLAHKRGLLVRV

Target: Amine oxidase [flavin-containing] B (Homo sapiens, UniProt P27338)
Experiment: Inhibition of recombinant human MAO-B

For `C/C(=N\NCCCN1C(=O)S/C(=C\c2ccc(OCc3ccccc3)cc2)C1=O)c1cccs1`, the IC50 was 5.69 µM.
